Tested on: anaesthetised dogs
Assay: Intracavernous and blood pressure recording in dogs

Structure (SMILES): COc1cc2nc(N3CCN(C(=O)c4ccco4)CC3)nc(N)c2cc1OC [Prazosin]
- DT (duration of tumescence) (30 μg/kg intracavernous): 1.1 ± 1.1 min
- DT (duration of tumescence) (100 μg/kg intracavernous): 1.4 ± 1.1 min
- DT (duration of tumescence) (300 μg/kg intracavernous): 3.0 ± 1.5 min
- DT (duration of tumescence) (1000 μg/kg intracavernous): 17.7 ± 14.1 min

From patent publication US6953800B2, “Use of selective antagonists of the α1B-adrenergic receptor for improvement of sexual dysfunction” (Recordati S.A. Chemical, priority 1999, dated 2005)
